## Ab-14 light chain CDR variants: yeast mating affinities

From the AlphaSeq antibody data of Li et al. 2023 (doi:10.1038/s41467-023-39022-2), copy in the FLAb collection.

The target is the same throughout: PDVDLGDISGINAS, from the HR2 region of SARS-CoV-2 spike.

Parent scFv Ab-14: VH joined to VL by three GGGGS repeats. Changes lie in the light chain CDRs alone.
VH: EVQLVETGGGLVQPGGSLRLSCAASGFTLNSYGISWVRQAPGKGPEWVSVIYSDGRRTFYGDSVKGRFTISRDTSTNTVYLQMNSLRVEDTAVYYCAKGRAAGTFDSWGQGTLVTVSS
VL: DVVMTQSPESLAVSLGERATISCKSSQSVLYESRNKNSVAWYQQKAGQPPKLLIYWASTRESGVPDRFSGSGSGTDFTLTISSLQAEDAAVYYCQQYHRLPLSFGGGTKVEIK

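The starting antibody came from a phage panning campaign against this peptide. The variants were designed computationally from a first round of random CDR variants and then made and measured. Several design methods are mixed in this list. Affinity was read by AlphaSeq, a pooled yeast mating assay with surface-displayed partners. Pairs that bind mate more often; barcode pairs of the diploids are counted by sequencing. Each replicate has its own calibration line, from reference interactions of the BCL2 family. There are six technical replicates.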

Each variant is given by its three light chain CDRs, as the data file delimits them; those of the parent are KSSQSVLYESRNKNSVA, WASTRES, QQYHRLPLS. This list holds designs with more than six substitutions. Values are apparent Kd, the geometric mean of the replicates that gave a signal; lower means stronger binding. Nonspecific signal, from three strains lacking the peptide, appeared in 4% of pairings of all light chain designs, centred on 430 nM (5% of these signals below 38 nM); values are not corrected for it. A sequence measured in both rounds can read differently, since the two assays cover different ranges. The authors' rule: three or more of the six replicates give a measured affinity, fewer mean a poor binder.

Variant NISYHQGEPTNSVNNVA, QTSLRAH, QQYQHLPLC gave 4.9 nM (6 of 6 replicates).
Variant KLSGQMLYEERNSNNVA, HASHRES, QQYHRLPLS gave 730 pM (6 of 6 replicates).
Variant TLYMGPTEARDDKHAIA, NMSERDY, QQYHRLPLV gave 2.7 nM (6 of 6 replicates).
Variant HITMGMYVKGRHTSNIA, QAETRAK, QQYDRLPLI gave 9.0 nM (6 of 6 replicates).
Variant KLSQSDGGESRNKNSVA, HASCRCS, QQYHRLPLS gave 8.9 nM (6 of 6 replicates).
Variant KFSGSWGMESRNKNSVA, NASHRMS, QQYHRLPLS gave 5.8 nM (6 of 6 replicates).
Variant TISQMWFIESKNKNNVA, EMTTREN, QDYDRLPLS gave 2.2 nM (6 of 6 replicates).
Variant NLNDSDMYASQMTDNIA, QDTLRNE, QQYAKLPLS gave 28 nM (6 of 6 replicates).
Variant QIEWYNSGLLEAKNSVA, GVEHRMN, QQYMRLPLE gave 1.3 nM (6 of 6 replicates).
Variant QLGAVQDTTSKNKNSVA, EQSTREN, QQYHRLPLS gave 2.6 nM (6 of 6 replicates).
Variant HIDQVKAEQKNAENNIA, SGAQRVW, QQYSRLPFI gave 1.0 nM (6 of 6 replicates).
Variant KLTTQVGHQMDHKNSIA, EVDMVAC, QQYMRLPLI gave 14 nM (6 of 6 replicates).
Variant MIHESMGLMMHKHSSIA, DNSTREE, QQYDRLPLS gave 170 nM (2 of 6 replicates).
Variant QVSITNMQGHAMEHNIA, EGTYAEE, QQYARLPLQ gave 4.4 nM (6 of 6 replicates).
Variant KLRWDDMSHFNTRSNVA, DMTMRVH, QQYNRLPLD gave 2.7 nM (6 of 6 replicates).
Variant IISQSMLYETATHNSIA, QTSTREE, QQYHHLPLS gave 5.9 nM (6 of 6 replicates).
Variant HYENISEPMGRYDQNIA, NVSTREH, QQYFMLPLS gave 3.7 nM (6 of 6 replicates).
Variant HMSMLTLQGMRMRNSVA, QMTTREN, QQYDRLPLA gave 25 nM (6 of 6 replicates).
Variant KIDGQRSYDAGRERAIA, DVTIRFW, QQYARLPLL gave 29 nM (6 of 6 replicates).
Variant KLSLSVELESRLKNSVA, HASTREE, QQYHRLPLS gave 530 pM (6 of 6 replicates).
Variant KLMMSGLYESRNSNSVA, NASTREQ, QQYHRLPLS gave 940 pM (6 of 6 replicates).
Variant KVMQSKEYESRQKNSVA, NASVREL, QQYHRLPLS gave 760 pM (6 of 6 replicates).
Variant TISQMSTLFSQTINNVA, EVSTREQ, QQYDRLPLV gave 70 nM (4 of 6 replicates).
Variant KIYQGINTHLGAHSSIA, QEETRLE, QQYAHLPLS gave 3.0 nM (6 of 6 replicates).
Variant KVEQSVMMGSRNKNSVA, HASQREQ, QQYHRLPLS gave 1.8 nM (6 of 6 replicates).
Variant KLSGFHNVESINKSNVA, EMVTRES, QQYDRLPLS gave 16 nM (6 of 6 replicates).
Variant KFQQSELYEKRNQNSVA, SASQRLS, QQYHRLPLS gave 1.0 nM (6 of 6 replicates).
Variant TLSQITGHMSMAKNNVA, EMETREN, QQYDRLPLS gave 82 nM (5 of 6 replicates).
Variant KLSGSMLYQSRNKNNVA, EASQREQ, QQYHRLPLS gave 680 pM (6 of 6 replicates).
Variant MISDLTYYGSRNVNSVA, DLSTRGS, QQYDRLPLS gave 6.1 nM (6 of 6 replicates).
Variant KILGVTNGISKNKNSVA, EQSTRES, QQYNRLPLS gave 2.0 nM (6 of 6 replicates).
Variant KLSQSQLYESRNVNAVA, NASQRMS, QQYHRLPLS gave 810 pM (6 of 6 replicates).
Variant KLSAATYRESMHENNVA, DLRARVE, QQYHRLPLS gave 2.0 nM (6 of 6 replicates).
Variant KLPNSSLYESRNKNQVA, SASTREM, QQYHRLPLS gave 25 nM (5 of 6 replicates).
Variant MISQLYNMGQFAINSVA, QASLRYN, QQYDRLPLI gave 2.0 nM (6 of 6 replicates).
Variant TIAQVMNTLTREGNNVA, DLAERED, QQYFRLPLS gave 49 nM (4 of 6 replicates).
Variant HMSMLTLQGMRHTNSVA, QMTTREN, QQYDRLPLM gave 3.8 nM (6 of 6 replicates).
Variant KFEQSWWYESRVKNNVA, NASQRES, QQYHRLPLS gave 4.4 nM (6 of 6 replicates).
Variant KLQQWVLYEGRNKNSVA, SASQRSD, QQYHRLPLS gave 2.3 nM (6 of 6 replicates).
Variant MMSQVRGSGTRQRNNVA, QTSTREP, QQYDRLPLI gave 21 nM (6 of 6 replicates).
Variant TIGQTLMSGVKNRSNVA, EVSQRLN, QQYDRLPLL gave 24 nM (6 of 6 replicates).
Variant QLLMATMQGTYNRNSVA, HAQTRND, QSYHRLPLA gave 15 nM (6 of 6 replicates).
Variant SFDLHHKQIETIESAVA, ETSVRAD, QSYDRLPLS gave 48 nM (3 of 6 replicates).